Data on one substance can be found in patent publication US8622991B2, “Method and device for drug delivery” (Insuline Medical Ltd., priority 2007, dated 2014).

For this data set the following is noted: with heating device vs without, bolus 0.15 U/kg, average of 11 subjects, FIG. 26b.

Take insulin: the “1 hour area under the curve improvement (amount of absorbed insulin in the blood)” value is listed as greater than 30%. The “blood insulin concentration for the same amount of infused insulin” value (initial 2 hours) was “significantly higher”.
